Values quoted from earlier work as cited in patent publication US9700872B1, “Superpolar chromatographic stationary phases and extraction sorbents and their methods of synthesis” (THE FLORIDA INTERNATIONAL UNIVERSITY BOARD OF TRUSTEES, priority 2016, dated 2017).

details: octanol/water; Top 100 EPA Priority Pollutants (Table 2)

Compound | Log Kow
4,4-DDT | 6.9
4,4-DDD | 6.2
Cc1cc([N+](=O)[O-])cc([N+](=O)[O-])c1O | 2.1
Dibenzo(h)anthracene | 6.5
2-Chroethyl vinyl ether | 1.4
Alpha-BHC | 3.8
4,4-DDE | 7
Aldrine | 4.5

same assay, conditions: octanol/water; exemplary polyhydroxy molecules (Table 1)

Compound | Log Kow
1-Ketose | −5.5
